Data on one substance can be found in US20040137582A1, “Methods for manufacturing polysaccharide derivatives” (priority 2002, published 2004).

This data set has as its system human skin fibroblasts. Briefly: Cell proliferation inhibition index (CPII) assay: direct contact assay. To be noted: for CPII: solutions, 72 h.

Take Dextran: under “depending on concentration”, the “relative inhibition of cell proliferation” value is 18-35%. Moreover, the CPII entry is, setting by setting: (10-20 mg/mL) “ca. 18%”; (higher concentrations) “ca. 35%”.
